Assay results as given in patent US8735395B2, “Protease inhibitors” (Medivir AB, priority 2008, dated 2014).
pKi: −log10 of the molar value. Each block holds one compound with its values, some of them ahead of it.

Sequences of proteins named here, by UniProt entry; tags and fusion partners are left off. Residues count along the entry.
UniProt P25774, 115-331: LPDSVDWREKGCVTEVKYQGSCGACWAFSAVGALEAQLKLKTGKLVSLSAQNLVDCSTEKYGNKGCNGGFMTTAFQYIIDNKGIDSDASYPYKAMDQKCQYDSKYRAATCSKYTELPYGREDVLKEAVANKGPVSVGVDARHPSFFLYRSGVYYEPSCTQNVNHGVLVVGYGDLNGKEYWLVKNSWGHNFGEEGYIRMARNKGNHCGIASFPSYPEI
UniProt P43235, 115-329: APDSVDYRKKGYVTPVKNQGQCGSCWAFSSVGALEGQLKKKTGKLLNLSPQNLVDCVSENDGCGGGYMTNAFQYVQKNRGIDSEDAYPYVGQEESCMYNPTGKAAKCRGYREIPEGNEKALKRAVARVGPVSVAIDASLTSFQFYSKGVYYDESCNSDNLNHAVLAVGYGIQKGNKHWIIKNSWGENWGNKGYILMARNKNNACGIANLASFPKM
UniProt P07711, 114-333: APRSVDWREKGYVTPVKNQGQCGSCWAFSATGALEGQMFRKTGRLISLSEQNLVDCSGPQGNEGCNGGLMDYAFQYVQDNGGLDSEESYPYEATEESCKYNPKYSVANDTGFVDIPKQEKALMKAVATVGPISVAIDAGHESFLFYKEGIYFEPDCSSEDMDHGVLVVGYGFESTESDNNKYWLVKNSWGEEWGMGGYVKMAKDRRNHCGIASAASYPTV

Key:
Assay type in all cases: biochemical
human cathepsin S = human cathepsin S (Homo sapiens (Human), UniProt P25774); assay: Cathepsin S Ki determination
Protocol: Cathepsin S Ki Determination […] 280 μl/well of 12.5% DMSO are added to rows B-H of two columns of a 96 deep well polypropylene plate. 70 μl/well of substrate is added to row A. 2×250 μl/well of assay buffer (100 mM Na phosphate, 100 mM NaCl, pH 6.5) is added to row A, mixed, and double diluted down the plate to row H. 100 μl/well of assay buffer is added to columns 2-5 and 7-12 of 4 rows of a 96 well V bottom polypropylene plate. 200 μl/well of assay buffer is added to columns 1 and 6. The first test compound prepared in DMSO is added to column 1 of the top row, typically at a volume to provide between 10 and 30 times the initially determined rough K. […] Mix row A using a multichannel pipette and double dilute to row G. Mix row H and read in the fluorescent spectrophotometer. […] The second test compound is added to column 6 of the top row, the third to column 1 of the second row etc. Add 1 μl of comparator to column 6 of the bottom row. Mix column 1 and double dilute to column 5. Mix column 6 and double dilute to column 10. Using an 8-channel multistepping pipette set to 5×10 μl, distribute 10 μl/well of substrate to the 384 well assay plate. Distribute the first column of the substrate dilution plate to all columns of the assay plate starting at row A. The tip spacing of the multichannel pipette will correctly skip alternate rows. Distribute the second column to all columns starting at row B. Using a 12-channel multistepping pipette set to 4×10 μl, distribute 10 μl/well of inhibitor to the 384 well assay plate. Distribute the first row of the inhibitor dilution plate to alternate rows of the assay plate starting at A1. […] Using the a distributor such as a Multidrop 384, add 30 μl/well to all wells of the assay plate and read in fluorescent spectrophotomoter such as an Ascent. Fluorescent readings, (excitation and emission wavelengths 390 nm and 460 nm respectively, set using bandpass filters) reflecting the extent of enzyme cleavage of the fluorescent substrate, notwithstanding the inhibitor, are linear rate fitted for each well. […]

[1] = target: human recombinant cathepsin K (Homo sapiens (Human), UniProt P43235); assay: Determination of cathepsin K proteolytic catalytic activity (Ki); conditions: Test 2 or unnumbered test
Protocol: Determination of Cathepsin K Proteolytic Catalytic Activity
Convenient assays for cathepsin K are carried out using human recombinant enzyme, such as that described in PDB.
The recombinant cathepsin K can be expressed in a variety of commercially available expression systems including E coli, Pichia and Baculovirus systems. The purified enzyme is activated by removal of the prosequence by conventional methods.
Standard assay conditions for the determination of kinetic constants used a fluorogenic peptide substrate, typically H-D-Ala-Leu-Lys-AMC, and were determined in either 100 mM Mes/Tris, pH 7.0 containing 1 mM EDTA and 10 mM 2-mercaptoethanol or 100 mM Na phosphate, imM EDTA, 0.1% PEG4000 pH 6.5 or 100 mM Na acetate, pH 5.5 containing 5 mM EDTA and 20 mM cysteine, in each case optionally with 1M DTT as stabiliser. The enzyme concentration used was 5 nM. The stock substrate solution was prepared at 10 mM in DMSO. Screens were carried out at a fixed substrate concentration of 60 μM and detailed kinetic studies with doubling dilutions of substrate from 250 μM. […] Product fluorescence (excitation at 390 nm, emission at 460 nm) was monitored with a Labsystems Fluoroskan Ascent fluorescent plate reader. […]
Potential inhibitors are screened using the above assay with variable concentrations of test compound. […] Ki values were calculated according to equation 1. […]

human cathepsin L = human cathepsin L (Homo sapiens (Human), UniProt P07711); assay: Cathepsin L Ki; conditions: Test 2 or unnumbered test
Protocol: The procedure above with the following amendments is used for the determination of Ki for cathepsin L.
The enzyme is commercially available human cathepsin L (for example Calbiochem). The substrate is H-D-Val-Leu-Lys-AMC available from Bahcem. The assay buffer is 100 mM sodium acetate 1 mM EDTA, pH5.5) The DMSO stock (10 mM in 100% DMSO) is diluted to 10% in assay buffer. Enzyme is prepared at 5 nM concentration in assay buffer plus 1 mM dithiothreitol just before use. 2 ul of 10 mM inhibitor made up in 100% DMSO is dispensed into row A. 10 μl of 50 μM substrate (=1/200 dilution of 10 mM stock in DMSO, diluted in assay buffer)
Potential inhibitors are screened using the above assay with variable concentrations of test compound. Reactions were initiated by addition of enzyme to buffered solutions of substrate and inhibitor. Ki values were calculated according to equation 1.

pKi (human cathepsin S; Test 1, class symbols): < 5.00
pKi (human cathepsin S; Test 2 or unnumbered test): 4.66
SMILES: C#C[C@@H]1CN(C(=O)[C@H](CC(C)C)NC(=O)c2ccc(-c3csc(N4CCN(C)CC4)n3)c(F)c2)[C@@H]2C(=O)CO[C@H]12 [Example 3, N-[1-6-(ethynyl-3-oxo-hexahydro-furo[3,2-b]pyrrole-4-carbonyl)-3-methyl-butyl]-3-fluoro-4-[2-(4-methyl-piperazin-1-yl)thiazol-4-yl]-benzamide]

pKi [1]: 8.59
SMILES: CC(C)C[C@H](NC(=O)c1ccc(-c2csc(N3CCN(C)CC3)n2)cc1)C(=O)N1C[C@@H](C=C(Br)Br)[C@H]2OCC(=O)[C@H]21 [Ref Ex 9]

pKi (human cathepsin S; Test 2 or unnumbered test): 4.84
SMILES: CC(C)=C[C@@H]1CN(C(=O)[C@H](CC(C)C)NC(=O)c2ccc(-c3nc(N4CCN(C)CC4)sc3F)cc2)[C@@H]2C(=O)CO[C@H]12 [Example 4, N-[1-6-(dimethylvinyl-3-oxo-hexahydro-furo[3,2-b]pyrrole-4-carbonyl)-3-methyl-butyl]-4-[5-fluoro-2-(4-methyl-piperazin-1-yl)thiazol-4-yl]-benzamide]

SMILES: C#C[C@@H]1CN(C(=O)[C@@H](NC(=O)c2ccc(-c3nc(N4CCN(C)CC4)sc3F)cc2)C2CCCC2)[C@@H]2C(=O)CO[C@H]12 [Example 5, N-[1-(6-ethynyl-3-oxo-hexahydro-furo[3,2-b]pyrrol-4-yl)-1-cyclopentyl-2-oxo-ethyl]-4-[5-fluoro-2-(4-methyl-piperazin-1-yl)-thiazol-4-yl]-benzamide]
pKi (human cathepsin L): 5.93
